Source: patent US20250264459A1, “IN VITRO ASSAY TO PREDICT CARDIOTOXICITY” (Stemina Biomarker Discovery, Inc., priority 2018, published 2025)

What was measured:
[1] = therapeutic total Cmax; cited from earlier work
[2] = test system: human iPSC-CM (iCell Cardiomyocytes2); test: Spent-media metabolomics (LC-MS) cardiotoxicity prediction models, blinded test set; conditions: cardiotoxic vs non-cardiotoxic, at the Exposure (μM) listed per compound in Table 3, model from confirmed metabolites and viability

Compound: CN(CCOc1ccc(CC2SC(=O)NC2=O)cc1)c1ccccn1 (centres unmarked) [Rosiglitazone]
- Cmax Total [1]: 1.7 µM
- Global Tox Model Prediction [2]: −
